According to US6255347A, “Methods and compositions comprising R-ibuprofen” (priority 1997, dated 2001):

Legend:
PKC .xi. = details: cytosolic or membranous fractions
APPs [1] = details: 10 mg/kg P.O. bid, 7 days; for Density of APP Bands, Cytosol: n = 4 mean ± S.D.
[2] = tested on: APPs secretion by NIH 3T3 cell lines; details: 50 μM, 20 h culture, n = 2, mean ± S.D.
PKC α [3] = details: inventors' previous study
PKC θ = details: cytosolic or membranous fractions
PKC γ = details: cytosolic or membranous fractions
APPs (105 kDa) = APPs (105 kDa) in human blood; type: in vivo
PKC = molecular target: T1, PKC (Rattus norvegicus, UniProt P05696); test: Protein kinase C activity assay (histone phosphorylation, partially purified rat brain PKC); type: biochemical; details: read-out: maximal inhibition of PKC activity, PMA stimulated
T1 construct: Partially purified PKCα from rat brain; purchased Promega (Madison, Wis.); host or cells: rat brain (tissue enzyme, partially purified)
Procedure: (-)-R-ibuprofen and (+)-S-ibuprofen (optical purity >99%) were obtained from Sepracor Inc. (Marlborough, Mass.). The following were obtained from the Sigma Chemical Co. (St. […] Anti-PKCα antibody (affinity purified) and its C-terminal region peptide was obtained from Life Technologies (Gaithersburg, Md.). […] All other chemicals were of the highest available purity and were obtained from standard commercial sources. The assay for PKC activity was carried out essentially as described by Boyle et al.(1991) by quantifying the phosphorylation of histone in the presence of phoshatidylserine and PMA, with or without ibuprofen. […] Following 2 min initial incubation at 30° C., kinase reactions were initiated by the addition of ^32 P-γ-ATP and enzyme and continued at 30° C. for 2 min. Control incubations contained all assay components except enzyme and ibuprofen. […] All samples were carried out in duplicate.

APP = details: 10 mg/kg P.O. bid, 7 days; n = 4 mean ± S.D.
neutrophil = details: induced by PMA in vitro; cited from earlier work
PKC βII = details: for rat brain PKC βII content (in words): 7 days of treatment; for Density of PKC βII Bands: membrane fraction, 10 mg/kg bid 7 days, n = 4 mean ± S.D.
PKC ε = details: cytosolic or membranous fractions
PKCα = PKCα translocation in NIH 3T3 cells (subcellular fractionation, Western blot); type: cell-based; details: 10 μg/ml; 30 min, 4 hours and 2 weeks
PKC α [4] = details: for rat brain PKC α content (in words): 7 days of treatment; for Density of PKC α Bands: membrane fraction, 10 mg/kg bid 7 days, n = 4 mean ± S.D.
APPs [5] = details: for APPs secretion in rat CSF (in words) / Density of APP Bands, CSF: 10 mg/kg P.O. bid, 7 days; for Density of APP Bands, CSF: n = 4 mean ± S.D.
[6] = oral; cited from earlier work
[7] = post 7 days dose (800 mg, tid), 0 hour, n = 4, mean ± S.D.

Compound	effect on PKC .xi. content (PKC .xi.)	Density of APP Bands, Cytosol (APPs [1])	Density of APPs band [2]	translocation of PKC α from human platelet cytosol to membrane fractions (PKC α [3])	effect on PKC θ content (PKC θ)	effect on PKC γ content (PKC γ)	human blood APPs (105 kDa) (APPs (105 kDa); [7])	inhibition at 20 µM (PKC) [%]	Density of APP Bands, Membrane (APP)	blocking of PKC dependent neutrophil respiratory burst (neutrophil)	rat brain PKC βII content (in words) (PKC βII)	Density of PKC βII Bands (PKC βII)	effect on PKC ε content (PKC ε)	reduction of PMA induced cytosol to membrane PKCα translocation (PKCα)	rat brain PKC α content (in words) (PKC α [4])	Density of PKC α Bands (PKC α [4])	APPs secretion in rat CSF (in words) (APPs [5])	Density of APP Bands, CSF (APPs [5])	further results
CC(C)Cc1ccc([C@H](C)C(=O)O)cc1 [S-ibuprofen]	did not show a dramatic effect	10.29 ± 5.75	6.83 ± 0.31	did not	did not show a dramatic effect	did not show a dramatic effect	0.96	62	3.99 ± 1.39	blocking the PKC dependent neutrophil respiratory burst	not significantly	5.99 ± 3.96	did not show a dramatic effect	reduced	not significantly	16.58 ± 4.44	dramatically increased APPs secretion	11.91 ± 6.42	human blood APPs (105 kDa) (APPs (105 kDa); 1st dose (800 mg), 0 hour (before dose), n = 4, mean ± S.D.): 1.76; duration of increased APPs (105 kDa) secretion (APPs (105 kDa); after 7 days dosing, 800 mg t.i.d. oral): 1 days; human blood APPs (105 kDa) (APPs (105 kDa); post 1st dose (800 mg), 1 hour, n = 4, mean ± S.D.): 2.53; human blood APPs (105 kDa) (APPs (105 kDa); post 1st dose (800 mg), 3 hours, n = 4, mean ± S.D.): 2.29; human blood APPs (105 kDa) (APPs (105 kDa); post 7 days dose (800 mg, tid), 1 hour, n = 4, mean ± S.D.): 2.61; human blood APPs (105 kDa) (APPs (105 kDa); post 7 days dose (800 mg, tid), 1 day, n = 4, mean ± S.D.): 2.98; duration of increased APPs (105 kDa) secretion (APPs (105 kDa); single oral 800 mg dose): 0.12 days
CC(C)Cc1ccc(C(C)C(=O)O)cc1 (racemic) [RS-ibuprofen]							2.46	59	4.65 ± 1.17										human blood APPs (105 kDa) (APPs (105 kDa); post 1st dose (800 mg), 8 hours, ND = Not detectable): 2.47; human blood APPs (105 kDa) (APPs (105 kDa); post 1st dose (800 mg), 12 hours, ND = Not detectable): 2.125; human blood APPs (105 kDa) (APPs (105 kDa); post 1st dose (800 mg), 24 hours, ND = Not detectable): 2.25; human blood APPs (105 kDa) (APPs (105 kDa); post 7 days dose (800 mg, tid), 7 days, ND = Not detectable): 3.21
O=C(O)CCCc1ccc(N(CCCl)CCCl)cc1 [Chlorambucil, 4-[bis(2-chlorethyl)amino]benzenebutanoic acid]																			absorption (in words) [6]: rapidly and completely absorbed
CC(C)Cc1ccc([C@@H](C)C(=O)O)cc1 [R-ibuprofen]	did not show a dramatic effect	11.51 ± 5.89	8.34 ± 0.88	complete translocation	did not show a dramatic effect	did not show a dramatic effect			4.85	blocking the PKC dependent neutrophil respiratory burst	dramatically	9.69 ± 2.19	did not show a dramatic effect	reduced	dramatically	18.41 ± 3.46	significantly greater than that of the racimate and S-enantiomer	19.48 ± 8.31	content of cytosolic APPs of rat brain (in words) (APPs [1]): more potent than racemic or S-ibuprofen; activity in the secretion of APPs versus racemic and S-ibuprofen (APPs [5]; summary statement): significantly more active than the currently employed racemic ibuprofen and S-ibuprofen
